Source: patent publication US11369613B2, “Salts and solid form of a BTK inhibitor” (PRINCIPIA BIOPHARMA INC., priority 2014, dated 2022)

Settings: ambient temperature

2-[(3R)-3-[4-amino-3-(2-fluoro-4-phenoxy-phenyl)-pyrazolo[3,4-d]pyrimidin-1-yl]piperidine-1-carbonyl]-4-methyl-4-[4-(oxetan-3-yl)-piperazin-1-yl]pent-2-enenitrile hemisulfate [hemi-sulfate]
Solubility in water: > 100 mg/mL
